The record followed here is US10011599B2 (priority 2013, dated 2018).

What is called IC50 is the concentration at which inhibition is half-maximal.

Bounds are passed on as bounds.

The test system of the test is A375 cells. In words: cells. To be noted: Homo sapiens, A-375, 72 h, read-out: A375 XTT IC50 uM.

As for `Cc1nc2cnc3cc(F)c(-c4ccc(Oc5ncccn5)cc4Cl)cc3c2n1C1CCN(S(C)(=O)=O)CC1` [Example 5, 8-(2-chloro-4-(pyrimidin-2-yloxy)phenyl)-7-fluoro-2-methyl-1-(1-(methylsulfonyl)piperidin-4-yl)-1H-imidazo[4,5-c]quinoline], the IC50 turned out to be 0.321 µM.
The result for `Cc1nc2cnc3cc(F)c(-c4ccc(Oc5ncccn5)cc4Cl)cc3c2n1C1CCN(C(=O)C(C)O)CC1` (stereo not drawn) [Example 6, 1-(4-(8-(2-chloro-4-(pyrimidin-2-yloxy)phenyl)-7-fluoro-2-methyl-1H-imidazo[4,5-c]quinolin-1-yl)piperidin-1-yl)-2-hydroxypropan-1-one] reads 0.232 µM; that for `Cc1nc2cnc3cc(F)c(-c4ccc(Oc5ncccn5)cc4Cl)cc3c2n1C1CCN(S(=O)(=O)C2CC2)CC1` [Example 8, 8-(2-chloro-4-(pyrimidin-2-yloxy)phenyl)-1-(1-(cyclopropylsulfonyl)piperidin-4-yl)-7-fluoro-2-methyl-1H-imidazo[4,5-c]quinoline], 0.319 µM.
For the compound `Cc1nc2cnc3cc(F)c(-c4ccc(Oc5ncccn5)cc4Cl)cc3c2n1C1CCN(S(=O)(=O)C(C)C)CC1` [Example 9, 8-(2-chloro-4-(pyrimidin-2-yloxy)phenyl)-7-fluoro-1-(1-(isopropylsulfonyl)piperidin-4-yl)-2-methyl-1H-imidazo[4,5-c]quinoline], the IC50 was 0.755 µM.
Then `Cc1nc2cnc3cc(F)c(-c4ccc(Oc5ncccn5)cc4Cl)cc3c2n1C1CCN(S(=O)(=O)N(C)C)CC1` [Example 10, 4-(8-(2-chloro-4-(pyrimidin-2-yloxy)phenyl)-7-fluoro-2-methyl-1H-imidazo[4,5-c]quinolin-1-yl)-N,N-dimethylpiperidine-1-sulfonamide], with 2.09 µM; and `Cc1nc2cnc3cc(F)c(-c4ccc(Oc5ncccn5)cc4Cl)cc3c2n1C1CCN(C(=O)N(C)C)CC1` [Example 11, 4-(8-(2-chloro-4-(pyrimidin-2-yloxy)phenyl)-7-fluoro-2-methyl-1H-imidazo[4,5-c]quinolin-1-yl)-N,N-dimethylpiperidine-1-carboxamide], with 6.55 µM.
The result for `CC(=O)N1CCC(n2c(C)nc3cnc4cc(F)c(-c5ccc(Oc6ncccn6)cc5Cl)cc4c32)CC1` [Example 12, 1-(4-(8-(2-chloro-4-(pyrimidin-2-yloxy)phenyl)-7-fluoro-2-methyl-1H-imidazo[4,5-c]quinolin-1-yl)piperidin-1-yl)ethanone] reads 0.414 µM; that for `Cc1nc2cnc3cc(F)c(-c4ccc(Oc5ncccn5)cc4Cl)cc3c2n1C1CCN(C(=O)CO)CC1` [Example 14, 1-(4-(8-(2-chloro-4-(pyrimidin-2-yloxy)phenyl)-7-fluoro-2-methyl-1H-imidazo[4,5-c]quinolin-1-yl)piperidin-1-yl)-2-hydroxyethanone], 0.076 µM; that for `Cc1nc2cnc3cc(F)c(-c4ccc(Oc5ncccn5)cc4Cl)cc3c2n1C1CCN(C(=O)C(CO)CO)CC1` [Example 22, 1-(4-(8-(2-chloro-4-(pyrimidin-2-yloxy)phenyl)-7-fluoro-2-methyl-1H-imidazo[4,5-c]quinolin-1-yl)piperidin-1-yl)-3-hydroxy-2-(hydroxymethyl)propan-1-one], more than 10 µM.
The result for `Cc1ccnc(Oc2ccc(-c3cc4c(cc3F)ncc3nc(C)n(C5CCN(C(=O)CO)CC5)c34)c(Cl)c2)n1` [Example 28, 1-(4-(8-(2-chloro-4-((4-methylpyrimidin-2-yl)oxy)phenyl)-7-fluoro-2-methyl-1H-imidazo[4,5-c]quinolin-1-yl)piperidin-1-yl)-2-hydroxyethanone] reads 0.0048 µM; that for `Cc1nc2cnc3cc(F)c(-c4ccc(Oc5ncccn5)cc4Cl)cc3c2n1C1CCN(C(N)=O)CC1` [Example 30], 0.014 µM.
Take `Cc1nc2cnc3cc(F)c(-c4ccc(Oc5ncccn5)cc4Cl)cc3c2n1C1CCN(C(=O)[C@H](C)O)CC1` [Example 34, (S)-1-(4-(8-(2-chloro-4-(pyrimidin-2-yloxy)phenyl)-7-fluoro-2-methyl-1H-imidazo[4,5-c]quinolin-1-yl)piperidin-1-yl)-2-hydroxypropan-1-one]: the IC50 came out at 0.212 µM.
As to `COCC(=O)N1CCC(n2c(C)nc3cnc4cc(F)c(-c5ccc(Oc6ncccn6)cc5Cl)cc4c32)CC1` [Example 42, 1-(4-(8-(2-chloro-4-(pyrimidin-2-yloxy)phenyl)-7-fluoro-2-methyl-1H-imidazo[4,5-c]quinolin-1-yl)piperidin-1-yl)-2-methoxyethanone], the IC50 amounted to 0.208 µM.
The result for `Cc1nc2cnc3cc(F)c(-c4ccc(Oc5ncccn5)cc4Cl)cc3c2n1C1CCN(C(=O)NCC(F)(F)F)CC1` [Example 45, 4-(8-(2-chloro-4-(pyrimidin-2-yloxy)phenyl)-7-fluoro-2-methyl-1H-imidazo[4,5-c]quinolin-1-yl)-N-(2,2,2-trifluoroethyl)piperidine-1-carboxamide] reads 4.27 µM; that for `CC(=O)OCC(=O)N1CC[C@H](n2c(C)nc3cnc4cc(F)c(-c5ccc(Oc6ncccn6)cc5Cl)cc4c32)[C@@H](F)C1` [Example 49, 2-((3S,4S)-4-(8-(2-chloro-4-(pyrimidin-2-yloxy)phenyl)-7-fluoro-2-methyl-1H-imidazo[4,5-c]quinolin-1-yl)-3-fluoropiperidin-1-yl)-2-oxoethyl acetate], 0.034 µM; that for `Cc1nc2cnc3cc(F)c(-c4ccc(Oc5ncccn5)cc4Cl)cc3c2n1[C@H]1CCN(S(C)(=O)=O)C[C@@H]1F` [Example 50, 8-(2-chloro-4-(pyrimidin-2-yloxy)phenyl)-7-fluoro-1-((3S,4S)-3-fluoro-1-(methylsulfonyl)piperidin-4-yl)-2-methyl-1H-imidazo[4,5-c]quinoline], 0.067 µM.
Then `Cc1nc2cnc3cc(F)c(-c4ccc(Oc5nccc(C(F)(F)F)n5)cc4Cl)cc3c2n1[C@H]1CCN(C(=O)CO)C[C@@H]1F` [Example 51, 1-((3S,4S)-4-(8-(2-chloro-4-((4-(trifluoromethyl)pyrimidin-2-yl)oxy)phenyl)-7-fluoro-2-methyl-1H-imidazo[4,5-c]quinolin-1-yl)-3-fluoropiperidin-1-yl)-2-hydroxyethanone], with 0.004 µM; and `COCC(=O)N1CC[C@H](n2c(C)nc3cnc4cc(F)c(-c5ccc(Oc6ncccn6)cc5Cl)cc4c32)[C@@H](F)C1` [Example 52, 1-((3S,4S)-4-(8-(2-chloro-4-(pyrimidin-2-yloxy)phenyl)-7-fluoro-2-methyl-1H-imidazo[4,5-c]quinolin-1-yl)-3-fluoropiperidin-1-yl)-2-methoxyethanone], with 0.159 µM.
The result for `Cc1nc(Oc2ccc(-c3cc4c(cc3F)ncc3nc(C)n([C@H]5CCN(C(=O)CO)C[C@@H]5F)c34)c(Cl)c2)ncc1F` [Example 53, 1-((3S,4S)-4-(8-(2-chloro-4-((5-fluoro-4-methylpyrimidin-2-yl)oxy)phenyl)-7-fluoro-2-methyl-1H-imidazo[4,5-c]quinolin-1-yl)-3-fluoropiperidin-1-yl)-2-hydroxyethanone] reads 0.012 µM; that for `Cc1nc2cnc3cc(F)c(-c4ccc(Oc5ncccn5)cc4Cl)cc3c2n1C1CCS(=O)(=O)CC1` [Example 55, 4-(8-(2-chloro-4-((4-methylpyrimidin-2-yl)oxy)phenyl)-7-fluoro-2-methyl-1H-imidazo[4,5-c]quinolin-1-yl)tetrahydro-2H-thiopyran 1,1-dioxide], 0.319 µM.
Take `COCC(=O)N1CCC(n2c(C)nc3cnc4cc(F)c(-c5ccc(Oc6nccc(C)n6)cc5Cl)cc4c32)CC1` [Example 67, 1-(4-(8-(2-chloro-4-((4-methylpyrimidin-2-yl)oxy)phenyl)-7-fluoro-2-methyl-1H-imidazo[4,5-c]quinolin-1-yl)piperidin-1-yl)-2-methoxyethanone]: the IC50 was 0.281 µM.
Then `COc1cc(Oc2ncccn2)ccc1-c1cc2c(cc1F)ncc1nc(C)n([C@H]3CCN(C(=O)CO)C[C@@H]3F)c12` [Example 88, 1-((3S,4S)-3-fluoro-4-(7-fluoro-8-(2-methoxy-4-(pyrimidin-2-yloxy)phenyl)-2-methyl-1H-imidazo[4,5-c]quinolin-1-yl)piperidin-1-yl)-2-hydroxyethanone], with 0.108 µM; and `Cc1nc2cnc3cc(F)c(-c4ccc(Oc5nccc(CO)n5)cc4Cl)cc3c2n1[C@H]1CCN(C(=O)CO)C[C@@H]1F` [Example 89, 1-((3S,4S)-4-(8-(2-chloro-4-((4-(hydroxymethyl)pyrimidin-2-yl)oxy)phenyl)-7-fluoro-2-methyl-1H-imidazo[4,5-c]quinolin-1-yl)-3-fluoropiperidin-1-yl)-2-hydroxyethanone], with 0.045 µM; and `Cc1cc(Oc2ncccn2)ccc1-c1cc2c(cc1F)ncc1nc(C)n([C@H]3CCN(C(=O)CO)C[C@@H]3F)c12` [Example 90, 1-((3S,4S)-3-fluoro-4-(7-fluoro-2-methyl-8-(2-methyl-4-(pyrimidin-2-yloxy)phenyl)-1H-imidazo[4,5-c]quinolin-1-yl)piperidin-1-yl)-2-hydroxyethanone], with 0.02 µM.
Then `Cc1nc2cnc3cc(F)c(-c4ccc(Oc5ncccn5)cc4F)cc3c2n1[C@H]1CCN(C(=O)CO)C[C@@H]1F` [Example 92, 1-((3S,4S)-3-fluoro-4-(7-fluoro-8-(2-fluoro-4-(pyrimidin-2-yloxy)phenyl)-2-methyl-1H-imidazo[4,5-c]quinolin-1-yl)piperidin-1-yl)-2-hydroxyethanone], with 0.135 µM; and `CC(=O)N1CC[C@H](n2c(C)nc3cnc4cc(F)c(-c5ccc(Oc6ncccn6)cc5Cl)cc4c32)[C@@H](F)C1` [Example 93, 1-((3S,4S)-4-(8-(2-chloro-4-(pyrimidin-2-yloxy)phenyl)-7-fluoro-2-methyl-1H-imidazo[4,5-c]quinolin-1-yl)-3-fluoropiperidin-1-yl)ethanone], with 0.061 µM; and `Cc1nc2cnc3cc(F)c(-c4ccc(Oc5ncccn5)cc4Cl)cc3c2n1[C@H]1CCN(C(N)=O)C[C@@H]1F` [Example 94, (3S,4S)-4-(8-(2-chloro-4-(pyrimidin-2-yloxy)phenyl)-7-fluoro-2-methyl-1H-imidazo[4,5-c]quinolin-1-yl)-3-fluoropiperidine-1-carboxamide], with 0.005 µM.
